The list shows a part of the results, in another mix than the full data. Active and inactive are the calls of the source. How the source made its calls: active means hit-call score of the fitted dose curve at least 0.9, where 1 is the maximum; inactive means score below 0.9.
The molecules below were run on Cyclin Dependent Kinase Inhibitor 1A (CDKN1A), CDKN1A (gene 1026) (assay: LTEA_HepaRG_CDKN1A: Life Technologies and Expression Analysis (LTEA) Assay for Cyclin Dependent Kinase Inhibitor 1A (CDKN1A) using HepaRG (AID 2283450)). Conditions: actives raise or lower the signal; mRNA level, 48 h.
Procedure, shortened: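 Gain or loss of CDKN1A transcript is scored by bidirectional fitting against 0.5% DMSO vehicle. Human HepaRG cultures receive chemicals for 48 h across an 8-point series peaking at 100 uM; expression comes from qRT-PCR.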

SMILES	outcome	AC50
CN(C(=O)Cc1cccc2occc12)[C@H]1CC[C@@]2(CCCO2)C[C@@H]1N1CCCC1	inactive	–
CC(C)OP(=S)(OC(C)C)SCCNS(=O)(=O)c1ccccc1	inactive	–
Cc1cc([N+](=O)[O-])cc([N+](=O)[O-])c1O	–	active: 88.4 µM
O=C1C2CC=CCC2C(=O)N1SC(Cl)(Cl)C(Cl)Cl (configuration not stated)	inactive	–

What follows are molecules tested on Cyclin D1 (CCND1), CCND1 (gene 595) (assay: LTEA_HepaRG_CCND1: Life Technologies and Expression Analysis (LTEA) Assay for Cyclin D1 (CCND1) using HepaRG (AID 2283451;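 on AC50: TaqMan qRT-PCR transcript level normalised to ACTB GAPDH and POLR2A housekeeping genes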)). Conditions: actives raise or lower the signal; mRNA level, 48 h.
Procedure, shortened: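 Expression change is measured by qRT-PCR in HepaRG cells after 48 h treatment across eight concentrations topping at 100 uM, with duplicate wells and DMSO (0.5%) serving as baseline for bidirectional fitting.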

SMILES	outcome	AC50
CN(C(=O)Cc1cccc2occc12)[C@H]1CC[C@@]2(CCCO2)C[C@@H]1N1CCCC1	inactive	–
CC(C)OP(=S)(OC(C)C)SCCNS(=O)(=O)c1ccccc1	–	active: 91.6 µM
Cc1cc([N+](=O)[O-])cc([N+](=O)[O-])c1O	inactive	–
O=C1C2CC=CCC2C(=O)N1SC(Cl)(Cl)C(Cl)Cl (configuration not stated)	inactive	–

Each molecule was assayed on catalase (CAT), CAT (gene 847) (assay: LTEA_HepaRG_CAT: Life Technologies and Expression Analysis (LTEA) Assay for catalase (CAT) using HepaRG (AID 2283452;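 on AC50: TaqMan qRT-PCR signal normalized to ACTB GAPDH and POLR2A housekeeping genes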)). Conditions: actives raise or lower the signal; mRNA level, 48 h.
Procedure, shortened: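 HepaRG cells in serum-free induction medium, 0.5% DMSO vehicle, exposed 48 h in duplicate over 8 half-log concentrations from 100 uM. CAT mRNA measured by qRT-PCR, normalized to ACTB, GAPDH, POLR2A; bidirectional fit versus DMSO.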

SMILES	outcome	AC50
CN(C(=O)Cc1cccc2occc12)[C@H]1CC[C@@]2(CCCO2)C[C@@H]1N1CCCC1	inactive	–
Cc1cc([N+](=O)[O-])cc([N+](=O)[O-])c1O	–	active: 5.81 µM
O=C1C2CC=CCC2C(=O)N1SC(Cl)(Cl)C(Cl)Cl (configuration not stated)	inactive	–

The molecules below were run on flavin-containing dimethylaniline monooxygenases 3 (FMO3), FMO3 (gene 2328) (assay: LTEA_HepaRG_FMO3: Life Technologies and Expression Analysis (LTEA) Assay for flavin-containing dimethylaniline monooxygenases 3 (FMO3) using HepaRG (AID 2283453)). Conditions: actives raise or lower the signal; mRNA level, 48 h.
Procedure, shortened: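 HepaRG, 48 h exposure, 8-pt half-log series from 100 uM, 0.5% DMSO vehicle, duplicates; FMO3 transcript by Fluidigm TaqMan qRT-PCR, housekeeping-normalized; gain/loss fit vs DMSO.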

SMILES	outcome	AC50
CN(C(=O)Cc1cccc2occc12)[C@H]1CC[C@@]2(CCCO2)C[C@@H]1N1CCCC1	inactive	–
CC(C)OP(=S)(OC(C)C)SCCNS(=O)(=O)c1ccccc1	–	active: 81.2 µM
Cc1cc([N+](=O)[O-])cc([N+](=O)[O-])c1O	–	active: 8.8 µM
O=C1C2CC=CCC2C(=O)N1SC(Cl)(Cl)C(Cl)Cl (configuration not stated)	inactive	–

The molecules below were run on Cytochrome P450 (CYP1A1), CYP1A1 (gene 1543) (assay: LTEA_HepaRG_CYP1A1: Life Technologies and Expression Analysis (LTEA) Assay for Cytochrome P450 (CYP1A1) using HepaRG (AID 2283454)). Conditions: actives raise or lower the signal; mRNA level, 48 h.
Procedure, shortened: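 Using HepaRG cultures with 0.5% DMSO as vehicle, eight-concentration exposures (max 100 uM) lasted 48 h. Transcript levels were measured by TaqMan qRT-PCR and normalized to ACTB, GAPDH and POLR2A.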

SMILES	AC50
CN(C(=O)Cc1cccc2occc12)[C@H]1CC[C@@]2(CCCO2)C[C@@H]1N1CCCC1	active: 41.9 µM
CC(C)OP(=S)(OC(C)C)SCCNS(=O)(=O)c1ccccc1	active: 16.9 µM
Cc1cc([N+](=O)[O-])cc([N+](=O)[O-])c1O	active: 75.1 µM
O=C1C2CC=CCC2C(=O)N1SC(Cl)(Cl)C(Cl)Cl (configuration not stated)	active: 65.1 µM

The molecules below were run on CFLAR gene, CFLAR (gene 8837) (assay: LTEA_HepaRG_CFLAR: Life Technologies and Expression Analysis (LTEA) Assay for CFLAR gene using HepaRG (AID 2283455)). Conditions: actives raise or lower the signal; mRNA level, 48 h.
Procedure, shortened: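 Differentiated HepaRG cells in serum-free induction medium were exposed 48 h in duplicate to eight half-log concentrations up to 100 uM in 0.5% DMSO; mRNA measured by TaqMan qRT-PCR, normalized to ACTB, GAPDH, POLR2A; bidirectional fitting versus DMSO.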

SMILES	outcome	AC50
CN(C(=O)Cc1cccc2occc12)[C@H]1CC[C@@]2(CCCO2)C[C@@H]1N1CCCC1	inactive	–
CC(C)OP(=S)(OC(C)C)SCCNS(=O)(=O)c1ccccc1	inactive	–
Cc1cc([N+](=O)[O-])cc([N+](=O)[O-])c1O	–	active: 4.49 µM
O=C1C2CC=CCC2C(=O)N1SC(Cl)(Cl)C(Cl)Cl (configuration not stated)	–	active: 9.92 µM

The molecules below were run on Forkhead box O1 (FOXO1), FOXO1 (gene 2308) (assay: LTEA_HepaRG_FOXO1: Life Technologies and Expression Analysis (LTEA) Assay for Forkhead box O1 (FOXO1) using HepaRG (AID 2283456)). Conditions: actives raise or lower the signal; mRNA level, 48 h.
Procedure, shortened: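 Differentiated HepaRG cells, in serum-free induction medium with 0.5% DMSO, exposed 48 h in duplicate to 8-point half-log series from 100 uM. FOXO1 mRNA measured by TaqMan qRT-PCR, normalized to ACTB, GAPDH, POLR2A; bidirectional fit versus DMSO.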

SMILES	outcome	AC50
CN(C(=O)Cc1cccc2occc12)[C@H]1CC[C@@]2(CCCO2)C[C@@H]1N1CCCC1	inactive	–
CC(C)OP(=S)(OC(C)C)SCCNS(=O)(=O)c1ccccc1	–	active: 86 µM
O=C1C2CC=CCC2C(=O)N1SC(Cl)(Cl)C(Cl)Cl (configuration not stated)	inactive	–

Each molecule was assayed on growth arrest and DNA damage 45 (GADD45A), GADD45A (gene 1647) (assay: LTEA_HepaRG_GADD45A: Life Technologies and Expression Analysis (LTEA) Assay for growth arrest and DNA damage 45 (GADD45A) using HepaRG (AID 2283458)). Conditions: actives raise or lower the signal; mRNA level, 48 h.
Procedure, shortened: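 Human HepaRG liver cells are treated in duplicate for 48 h with chemicals in 0.5% DMSO, highest concentration 100 uM. Expression is read by qRT-PCR and analyzed in both directions against vehicle.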

SMILES	outcome	AC50
CN(C(=O)Cc1cccc2occc12)[C@H]1CC[C@@]2(CCCO2)C[C@@H]1N1CCCC1	inactive	–
CC(C)OP(=S)(OC(C)C)SCCNS(=O)(=O)c1ccccc1	–	active: 70.6 µM
Cc1cc([N+](=O)[O-])cc([N+](=O)[O-])c1O	–	active: 35.2 µM
O=C1C2CC=CCC2C(=O)N1SC(Cl)(Cl)C(Cl)Cl (configuration not stated)	–	active: 0.511 µM

The molecules below were run on Forkhead box O3 (FOXO3), FOXO3 (gene 2309) (assay: LTEA_HepaRG_FOXO3: Life Technologies and Expression Analysis (LTEA) Assay for Forkhead box O3 (FOXO3) using HepaRG (AID 2283459)). Conditions: actives raise or lower the signal; mRNA level, 48 h.
Procedure, shortened: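 Differentiated human HepaRG cells, 48 h post-plating, exposed in duplicate for 48 h in serum-free induction medium; 8-point half-log series from 100 uM in 0.5% DMSO. FOXO3 mRNA by TaqMan qRT-PCR, normalized to ACTB/GAPDH/POLR2A; bidirectional fit versus DMSO.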

SMILES	outcome	AC50
CN(C(=O)Cc1cccc2occc12)[C@H]1CC[C@@]2(CCCO2)C[C@@H]1N1CCCC1	inactive	–
CC(C)OP(=S)(OC(C)C)SCCNS(=O)(=O)c1ccccc1	–	active: 87.2 µM
Cc1cc([N+](=O)[O-])cc([N+](=O)[O-])c1O	inactive	–
O=C1C2CC=CCC2C(=O)N1SC(Cl)(Cl)C(Cl)Cl (configuration not stated)	inactive	–

The molecules below were run on ABC Transporter (ABCB1), ABCB1 (gene 5243) (assay: LTEA_HepaRG_ABCB1: Life Technologies and Expression Analysis (LTEA) Assay for ABC Transporter (ABCB1) using HepaRG (AID 2283460)). Conditions: actives raise or lower the signal; mRNA level, 48 h.
Procedure, shortened: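 HepaRG cells exposed in duplicate for 48 h in serum-free induction medium to eight half-log concentrations up to 100 uM in 0.5% DMSO. ABCB1 mRNA quantified by qRT-PCR, normalised to ACTB, GAPDH and POLR2A; fitted bidirectionally versus DMSO.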

SMILES	AC50	outcome
CN(C(=O)Cc1cccc2occc12)[C@H]1CC[C@@]2(CCCO2)C[C@@H]1N1CCCC1	active: 33.4 µM	–
CC(C)OP(=S)(OC(C)C)SCCNS(=O)(=O)c1ccccc1	active: 90.1 µM	–
Cc1cc([N+](=O)[O-])cc([N+](=O)[O-])c1O	active: 12.3 µM	–
O=C1C2CC=CCC2C(=O)N1SC(Cl)(Cl)C(Cl)Cl (configuration not stated)	–	inactive

The molecules below were run on growth arrest and DNA damage 45 (GADD45B), GADD45B (gene 4616) (assay: LTEA_HepaRG_GADD45B: Life Technologies and Expression Analysis (LTEA) Assay for growth arrest and DNA damage 45 (GADD45B) using HepaRG (AID 2283461)). Conditions: actives raise or lower the signal; mRNA level, 48 h.
Procedure, shortened: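 Human HepaRG monolayers receive chemicals for 48 h at eight half-log concentrations, highest 100 uM, in 0.5% DMSO. Expression is measured by TaqMan qRT-PCR and normalized to ACTB, GAPDH and POLR2A.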

SMILES	outcome	AC50
CN(C(=O)Cc1cccc2occc12)[C@H]1CC[C@@]2(CCCO2)C[C@@H]1N1CCCC1	inactive	–
CC(C)OP(=S)(OC(C)C)SCCNS(=O)(=O)c1ccccc1	inactive	–
O=C1C2CC=CCC2C(=O)N1SC(Cl)(Cl)C(Cl)Cl (configuration not stated)	–	active: 50 µM

These molecules were tested on ABC Transporter (ABCC3), ABCC3 (gene 8714) (assay: LTEA_HepaRG_ABCC3: Life Technologies and Expression Analysis (LTEA) Assay for ABC Transporter (ABCC3) using HepaRG (AID 2283462)). Conditions: actives raise or lower the signal; mRNA level, 48 h.
Procedure, shortened: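 Transcriptional change of ABCC3 in HepaRG after 48 h treatment, determined by qRT-PCR normalized to endogenous controls. Concentrations spanned eight half-log steps to 100 uM in 0.5% DMSO.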

SMILES	outcome	AC50
CN(C(=O)Cc1cccc2occc12)[C@H]1CC[C@@]2(CCCO2)C[C@@H]1N1CCCC1	inactive	–
CC(C)OP(=S)(OC(C)C)SCCNS(=O)(=O)c1ccccc1	inactive	–
Cc1cc([N+](=O)[O-])cc([N+](=O)[O-])c1O	–	active: 12.7 µM
O=C1C2CC=CCC2C(=O)N1SC(Cl)(Cl)C(Cl)Cl (configuration not stated)	inactive	–

Each molecule was assayed on ABC Transporter (ABCB11), ABCB11 (gene 8647) (assay: LTEA_HepaRG_ABCB11: Life Technologies and Expression Analysis (LTEA) Assay for ABC Transporter (ABCB11) using HepaRG (AID 2283463)). Conditions: actives raise or lower the signal; mRNA level, 48 h.
Procedure, shortened: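 Differentiated human HepaRG cells in serum-free induction medium, dosed in duplicate for 48 h. Eight-point half-log series from 100 uM in 0.5% DMSO; ABCB11 mRNA by qRT-PCR, normalized to ACTB, GAPDH, POLR2A, fitted bidirectionally versus DMSO.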

SMILES	outcome	AC50
CN(C(=O)Cc1cccc2occc12)[C@H]1CC[C@@]2(CCCO2)C[C@@H]1N1CCCC1	inactive	–
CC(C)OP(=S)(OC(C)C)SCCNS(=O)(=O)c1ccccc1	–	active: 94 µM
O=C1C2CC=CCC2C(=O)N1SC(Cl)(Cl)C(Cl)Cl (configuration not stated)	–	active: 75.5 µM

What follows are molecules tested on ABC Transporter (ABCC2), ABCC2 (gene 1244) (assay: LTEA_HepaRG_ABCC2: Life Technologies and Expression Analysis (LTEA) Assay for ABC Transporter (ABCC2) using HepaRG (AID 2283464)). Conditions: actives raise or lower the signal; mRNA level, 48 h.
Procedure, shortened: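 After plating and 48 h culture, HepaRG medium is replaced with serum-free induction medium and chemicals are added (8 concentrations, max 100 uM, 0.5% DMSO) for 48 h. Total RNA then undergoes qRT-PCR for ABCC2 with housekeeping normalization.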

SMILES	outcome	AC50
CN(C(=O)Cc1cccc2occc12)[C@H]1CC[C@@]2(CCCO2)C[C@@H]1N1CCCC1	inactive	–
CC(C)OP(=S)(OC(C)C)SCCNS(=O)(=O)c1ccccc1	–	active: 86.6 µM
Cc1cc([N+](=O)[O-])cc([N+](=O)[O-])c1O	–	active: 12.5 µM
O=C1C2CC=CCC2C(=O)N1SC(Cl)(Cl)C(Cl)Cl (configuration not stated)	inactive	–
